Source: PMC7286548 (Cell chemical biology, 2020)

Molecular target: T1, PI5P4Kα (Homo sapiens, UniProt P48426)
T1 sequence (P48426 1-406): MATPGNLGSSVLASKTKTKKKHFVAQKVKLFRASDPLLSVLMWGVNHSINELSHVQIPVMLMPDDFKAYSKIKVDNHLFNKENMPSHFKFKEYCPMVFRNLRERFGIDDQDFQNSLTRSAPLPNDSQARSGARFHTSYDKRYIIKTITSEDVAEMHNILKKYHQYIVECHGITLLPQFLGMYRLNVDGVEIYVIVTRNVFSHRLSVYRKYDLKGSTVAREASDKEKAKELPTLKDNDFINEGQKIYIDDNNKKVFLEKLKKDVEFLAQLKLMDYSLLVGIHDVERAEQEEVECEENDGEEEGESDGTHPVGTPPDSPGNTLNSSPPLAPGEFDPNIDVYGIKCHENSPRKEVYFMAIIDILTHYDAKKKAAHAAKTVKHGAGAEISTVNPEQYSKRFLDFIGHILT
Assay: ADP-Glo kinase assay
Assay type: biochemical
Details: fixed time-point ADP-Glo, apparent IC50, 5 μM ATP

`CN(C)C/C=C/C(=O)Nc1ccc(C(=O)Nc2cccc(Nc3cc(-c4c[nH]c5ccccc45)ncn3)c2)cc1` [THZ-P1-2] showed an IC50 of 190 nM.
